The text below walks through data of US20060240535A1, “Carbonyl reductase from lactococcus lactis” (GEORGIA TECH RESEARCH CORPORATION, priority 2004, published 2006).

This data set deals with NADPH. Description: purified protein, by the assay type. The conditions noted are these: other: pH 7.0 and 30° C.

Regarding “carbonyl reductase from Lactococcus lactis (LL-CR) (Lactococcus lactis subsp. lactis Il1403)”, the Km is 30 µM.
